# Values of other authors as cited in paper PMC3151534 (Bioorganic & medicinal chemistry, 2010).
# Amino acid sequences for entries named in this document (tags omitted). A change or cut given only in a name is not applied to a line headed by its entry. Residues count along the entry.
# UniProt P40189: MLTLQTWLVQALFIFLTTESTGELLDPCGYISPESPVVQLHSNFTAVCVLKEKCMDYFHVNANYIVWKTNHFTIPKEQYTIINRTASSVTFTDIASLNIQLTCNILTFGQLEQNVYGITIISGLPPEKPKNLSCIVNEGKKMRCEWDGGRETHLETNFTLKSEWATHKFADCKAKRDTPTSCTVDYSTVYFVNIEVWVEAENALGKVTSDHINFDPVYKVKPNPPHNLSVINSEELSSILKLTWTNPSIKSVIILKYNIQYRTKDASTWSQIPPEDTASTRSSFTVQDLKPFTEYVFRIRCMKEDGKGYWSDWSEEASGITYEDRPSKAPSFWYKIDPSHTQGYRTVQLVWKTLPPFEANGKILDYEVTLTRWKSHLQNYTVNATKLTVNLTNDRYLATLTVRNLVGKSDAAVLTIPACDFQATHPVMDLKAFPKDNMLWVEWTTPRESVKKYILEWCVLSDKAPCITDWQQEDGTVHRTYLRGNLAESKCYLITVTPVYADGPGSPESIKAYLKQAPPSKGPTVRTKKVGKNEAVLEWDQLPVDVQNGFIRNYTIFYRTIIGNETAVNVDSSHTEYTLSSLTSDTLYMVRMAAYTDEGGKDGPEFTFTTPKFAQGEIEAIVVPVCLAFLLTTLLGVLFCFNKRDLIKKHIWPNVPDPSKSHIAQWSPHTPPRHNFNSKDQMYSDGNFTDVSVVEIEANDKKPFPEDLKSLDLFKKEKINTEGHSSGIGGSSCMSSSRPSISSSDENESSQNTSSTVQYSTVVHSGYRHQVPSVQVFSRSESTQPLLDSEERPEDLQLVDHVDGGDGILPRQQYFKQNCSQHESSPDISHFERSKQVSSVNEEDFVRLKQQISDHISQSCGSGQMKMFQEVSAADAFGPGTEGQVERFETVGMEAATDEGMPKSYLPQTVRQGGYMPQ
# UniProt P40763, 577-673: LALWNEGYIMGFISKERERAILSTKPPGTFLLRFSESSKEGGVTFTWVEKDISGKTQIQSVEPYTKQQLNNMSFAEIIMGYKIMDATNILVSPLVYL
# Target: gp130 (Homo sapiens) (UniProt P40189)
# Conditions: cited from earlier work
substance,measurement,value
STAT3 SH2 (from UniProt P40763),Kd,150 nM
